# AlphaSeq binding of Ab-14 heavy chain variants to a spike HR2 peptide

The measurements come from Engelhart et al. 2022 (doi:10.1038/s41597-022-01779-4) through the FLAb antibody collection.

Target: peptide PDVDLGDISGINAS, taken from heptad repeat 2 (HR2) of SARS-CoV-2 spike.

Ab-14 is the parent antibody, in scFv form: VH, then a (GGGGS)3 linker, then VL. The light chain is unchanged in all variants.
VH: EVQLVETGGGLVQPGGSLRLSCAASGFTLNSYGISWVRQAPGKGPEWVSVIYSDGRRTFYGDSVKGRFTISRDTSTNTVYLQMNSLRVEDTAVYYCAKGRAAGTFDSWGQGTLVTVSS
VL: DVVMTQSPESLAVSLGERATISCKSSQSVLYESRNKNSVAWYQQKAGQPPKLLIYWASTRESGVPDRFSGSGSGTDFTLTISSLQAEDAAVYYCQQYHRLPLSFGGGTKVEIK

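Phage display of a naive human antibody library on the peptide gave the parent. The library (AAYL49) carries one to three amino acid substitutions per variant, with no insertions or deletions. The scFvs were displayed on barcoded MATa yeast, the peptide on MATalpha yeast. Pairs that bind mate more often; barcode pairs of the diploids are counted by sequencing. A regression on co-assayed BCL2-family reference pairs converts the normalised counts of each replicate to an apparent Kd. There are three technical replicates.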

Positions count from residue 1 of the parent VH; F27P puts P in place of F. The read-out is the apparent dissociation constant on a log10 scale (nM): the lower, the stronger. Replicates are averaged; those with no signal do not enter the mean. Where no diploid with the target was found in that replicate, the entry reads "ND": below detection, most likely a poor binder, though not proof of it. Nonspecific signal, from three strains lacking the peptide, appeared in 15% of pairings of library AAYL49, centred on 4.06 (5% of these signals below 2.83); values are not corrected for it. For each scFv, signals with the empty controls are counted beside the result.

With F27P T28A G55Y the result was ND, ND, ND (controls 2 of 9).
With G26A R57S S63N the result was 2.86, ND, ND (controls 0 of 9).
With N30C S31N V50G the result was ND, ND, ND (controls 0 of 9).
With I51K G55R A101W the result was ND, ND, ND (controls 0 of 9).
With S31Y G55R S107H the result was ND, 3.97, 4.29 (mean 4.13; controls 2 of 9).
With F27E G55H F105L the result was ND, 4.94, ND (controls 1 of 9).
With S31N G61R the result was 1.52, 1.82, 1.85 (mean 1.73; controls 3 of 9).
With Y32I R57A Y60R the result was ND, ND, ND (controls 1 of 9).
With L29D I34H V64Y the result was 3.36, ND, 4.97 (mean 4.17; controls 1 of 9).
With N30M T58V D62C the result was ND, ND, ND (controls 0 of 9).
With S35W S53R G55V the result was ND, 4.36, ND (controls 1 of 9).
With S35Q G103S T104S the result was 4.77, 3.67, ND (mean 4.22; controls 2 of 9).
With I34T F59M the result was ND, ND, ND (controls 4 of 9).
With S35R R56K R57Y the result was ND, 4.22, ND (controls 1 of 9).
With N30E S53D the result was 3.67, 4.33, ND (mean 4.00; controls 1 of 9).
With I34H R56H S107D the result was ND, ND, ND (controls 0 of 9).
With D62V G99C T104Q the result was ND, ND, ND (controls 1 of 9).
With G26C Y52S A101Y the result was 4.09, ND, ND (controls 4 of 9).
With N30A S53R the result was 5.22, 5.09, ND (mean 5.15; controls 3 of 9).
With D54P G55M D106N the result was ND, ND, ND (controls 0 of 9).
With F59R T104V F105D the result was 2.28, 2.70, 2.33 (mean 2.44; controls 1 of 9).
With T28L V50Q G99W the result was 5.51, ND, ND (controls 0 of 9).
With T28N F59M A101Q the result was 0.10, 0.43, 0.21 (mean 0.25; controls 6 of 9).
With F27C D54L V64M the result was ND, 3.62, ND (controls 1 of 9).
With F27V L29N G33C the result was ND, ND, ND (controls 0 of 9).
With N30H S63E A102K the result was 0.61, 1.29, 0.85 (mean 0.92; controls 2 of 9).
With T28I T104M the result was 1.95, 1.26, 2.16 (mean 1.79; controls 0 of 9).
With R57Q K65A G103K the result was 4.38, 2.97, 2.72 (mean 3.36; controls 1 of 9).
With Y32V Y52F D106K the result was ND, ND, ND (controls 0 of 9).
With T28K S53H S63M the result was 1.75, 1.69, 1.71 (mean 1.72; controls 2 of 9).
With L29D G61R V64G the result was ND, ND, ND (controls 3 of 9).
With T28S G61A G99R the result was 1.37, 1.53, 1.55 (mean 1.48; controls 8 of 9).
With G61S V64Y F105T the result was ND, ND, ND (controls 0 of 9).
With D54E D106L S107G the result was ND, ND, ND (controls 0 of 9).
With S31L D54Q T58V the result was ND, ND, ND (controls 1 of 9).
With S31Y R57V F59A the result was ND, ND, ND (controls 0 of 9).
With I34M S35E G99L the result was ND, ND, ND (controls 1 of 9).
With L29E D54I R56D the result was 4.67, 3.34, ND (mean 4.00; controls 4 of 9).
With G26A G33I S63R the result was 3.78, ND, 4.24 (mean 4.01; controls 2 of 9).
With F27R D54Q S107G the result was ND, ND, ND (controls 0 of 9).
With S31T Y32P K65T the result was 4.82, ND, ND (controls 3 of 9).
With Y32Q S35N Y60N the result was ND, ND, ND (controls 1 of 9).
With Y32W G99H the result was ND, ND, ND (controls 2 of 9).
With V50G R57E A102N the result was ND, 2.08, ND (controls 0 of 9).
With G33A S63A F105D the result was ND, ND, ND (controls 1 of 9).
With A101H S107L the result was 0.94, 1.12, 1.19 (mean 1.08; controls 1 of 9).
With S31A I51N A102V the result was ND, ND, ND (controls 4 of 9).
With V64S A101D F105W the result was 4.98, ND, ND (controls 1 of 9).
With Y52I D62L R100P the result was ND, ND, 3.36 (controls 2 of 9).
With G26H Y60D T104M the result was ND, ND, ND (controls 4 of 9).
With Y52C F59R D106M the result was ND, ND, 4.31 (controls 3 of 9).
With F27H D54F S63I the result was ND, ND, 4.19 (controls 0 of 9).